Reference: BindingDB's records for doi:10.1016/j.bmcl.2009.09.123 (Genomics Institute of The Novartis Research Foundation, 2009)

Test: Inhibition of Tel-fused LCK expressed in mouse BAF3 cells

Cc1ccc(NC(=O)c2ccncc2C(C)(C)C)cc1Nc1nc2ccccc2n1-c1cc(N)ncn1 [N-(3-(1-(6-aminopyrimidin-4-yl)-1H-benzo[d]imidazol-2-ylamino)-4-methylphenyl)-3-tert-butylisonicotinamide]
IC50: 7 nM
